Measurements as given in patent publication US20260382731A1, “BCL-2/BCL-XL PROTEIN DEGRADER AND USE THEREOF” (published 2026).

Test system: MOLT-4 cells
Experiment: Cell viability assay, MOLT-4 (CellTiter-Glo, 72 h)
Settings: read-out: MOLT4 Cell viability IC50
Method: Human T-ALL cell MOLT-4 or SCLC NCI-H146 was cultured using standard cell culture conditions in RPMI-1640 supplemented with 10% FBS in humidified incubator at 37 °C, 5% CO2. To assess the effect of BCL-XL PROTAC degraders on cell viability, exponentially growing cells were seeded at a density of 10,000 cells/well in 96-well plates. After cell seeding, serially-diluted compound or DMSO was added to the cells (in concentration ranging from 0 to 10 uM, 3* dilution series), and plates were incubated for 72 hours. Cell viability was measured using a CellTiter-Glo Luminescent Cell Viability Assay kit (Promega) according to the manufacturer's protocol. The luminescence signal of treated cells was normalized to DMSO control. The dose response curves and IC50 values were generated using Prism.

Row | Compound | IC50 [nM]
1 | CCn1c(C)c(S(C)(=O)=O)c(-c2cc(F)cc(N3CCN(c4ccc(NS(=O)(=O)c5ccc(N[C@H](CCN6CCN(C(=O)CCCCCC(=O)N[C@H](C(=O)N7C[C@H](O)C[C@H]7C(=O)N[C@@H](C)c7ccc(-c8scnc8C)cc7)C(C)(C)C)CC6)CSc6ccccc6)c(S(=O)(=O)C(F)(F)F)c5)cn4)CC3)c2)c1-c1ccc(F)cc1 | 55
2 | CCn1c(C)c(S(C)(=O)=O)c(-c2cc(F)cc(N3CCN(c4ncc(NS(=O)(=O)c5ccc(N[C@H](CCN6CCN(CCCc7cc([C@@H](C(=O)N8C[C@H](O)C[C@H]8C(=O)N[C@@H](CO)c8ccc(-c9scnc9C)cc8)C(C)C)on7)CC6)CSc6ccccc6)c(S(=O)(=O)C(F)(F)F)c5)cn4)CC3)c2)c1-c1ccc(F)cc1 | 361
3 | CCn1c(C)c(S(=O)(=O)NCCN(C)C)c(-c2cc(F)cc(N3CCN(c4ccc(NS(=O)(=O)c5ccc(N[C@H](CCN6CCN(C(=O)CCCCCC(=O)N[C@H](C(=O)N7C[C@H](O)C[C@H]7C(=O)N[C@@H](C)c7ccc(-c8scnc8C)cc7)C(C)(C)C)CC6)CSc6ccccc6)c(S(=O)(=O)C(F)(F)F)c5)cc4)CC3)c2)c1-c1ccc(F)cc1 | 11
4 | CCn1c(C)c(CS(C)(=O)=O)c(-c2cc(F)cc(N3CCN(c4ccc(NS(=O)(=O)c5ccc(N[C@H](CCN6CCN(C(=O)CCCCCC(=O)N[C@H](C(=O)N7C[C@H](O)C[C@H]7C(=O)N[C@@H](C)c7ccc(-c8scnc8C)cc7)C(C)(C)C)CC6)CSc6ccccc6)c(S(=O)(=O)C(F)(F)F)c5)cc4)CC3)c2)c1-c1ccc(F)cc1 | 130
5 | CCn1c(C)c(S(C)(=O)=O)c(-c2cc(F)cc(N3CCN(c4ccc(NS(=O)(=O)c5ccc(N[C@H](CCN6CCN(C(=O)C7CC8(CC(CC(=O)N[C@H](C(=O)N9C[C@H](O)C[C@H]9C(=O)N[C@@H](C)c9ccc(-c%10scnc%10C)cc9)C(C)(C)C)C8)C7)CC6)CSc6ccccc6)c(S(=O)(=O)C(F)(F)F)c5)cc4)CC3)c2)c1-c1ccc(F)cc1 (stereo partly shown) | 140
6 | CCn1c(C)c(C(=O)N2CC3COCC3C2)c(-c2cc(F)cc(N3CCN(c4ccc(NS(=O)(=O)c5ccc(N[C@H](CCN6CCN(C(=O)CCCCCC(=O)N[C@H](C(=O)N7C[C@H](O)C[C@H]7C(=O)N[C@@H](C)c7ccc(-c8scnc8C)cc7)C(C)(C)C)CC6)CSc6ccccc6)c(S(=O)(=O)C(F)(F)F)c5)cc4)CC3)c2)c1-c1ccc(F)cc1 (stereo partly shown) | 140
7 | CCn1c(C)c(S(C)(=O)=O)c(-c2cc(F)cc(N3CCN(c4ccc(NS(=O)(=O)c5ccc(N[C@H](CCN6CCN(C(=O)CC7CC8(C7)CC(C(=O)N[C@H](C(=O)N7C[C@H](O)C[C@H]7C(=O)N[C@@H](C)c7ccc(-c9scnc9C)cc7)C(C)(C)C)C8)CC6)CSc6ccccc6)c(S(=O)(=O)C(F)(F)F)c5)cc4)CC3)c2)c1-c1ccc(F)cc1 (stereo partly shown) | 75
8 | CCn1c(C)c(C(=O)N2C[C@H](O)[C@@H](F)C2)c(-c2cc(F)cc(N3CCN(c4ccc(NS(=O)(=O)c5ccc(N[C@H](CCN6CCN(C(=O)CCCCCC(=O)N[C@H](C(=O)N7C[C@H](O)C[C@H]7C(=O)N[C@@H](C)c7ccc(-c8scnc8C)cc7)C(C)(C)C)CC6)CSc6ccccc6)c(S(=O)(=O)C(F)(F)F)c5)cc4)CC3)c2)c1-c1ccc(F)cc1 | 23
9 | CCn1c(C)c(S(C)(=O)=O)c(-c2cc(F)cc(N3CCN([C@H]4CC[C@@H](NS(=O)(=O)c5ccc(N[C@H](CCN6CCN(C7CCN(CCOc8cc([C@H](C(=O)N9C[C@H](O)C[C@H]9C(=O)N[C@@H](CO)c9ccc(-c%10scnc%10C)cc9)C(C)C)on8)CC7)CC6)CSc6ccccc6)c(S(=O)(=O)C(F)(F)F)c5)CC4)CC3)c2)c1-c1ccc(F)cc1 | 7400
10 | CCn1c(C)c(S(C)(=O)=O)c(-c2cc(F)cc(N3CCN(c4ccc(NS(=O)(=O)c5ccc(N[C@H](CCN6CCN(C(=O)CCOCCC(=O)N[C@H](C(=O)N7C[C@H](O)C[C@H]7C(=O)N[C@@H](C)c7ccc(-c8scnc8C)cc7)C(C)(C)C)CC6)CSc6ccccc6)c(S(=O)(=O)C(F)(F)F)c5)cc4)CC3)c2)c1-c1ccc(F)cc1 | 310
11 | CCn1c(C)c(S(C)(=O)=O)c(-c2cc(F)cc(N3CCN(c4ccc(NS(=O)(=O)c5ccc(N[C@H](CCN6CCN(C(=O)CC7CCC(CC(=O)N[C@H](C(=O)N8C[C@H](O)C[C@H]8C(=O)N[C@@H](C)c8ccc(-c9scnc9C)cc8)C(C)(C)C)CC7)CC6)CSc6ccccc6)c(S(=O)(=O)C(F)(F)F)c5)cc4)CC3)c2)c1-c1ccc(F)cc1 (stereo partly shown) | 84
12 | Cc1ncsc1-c1ccc([C@H](C)NC(=O)[C@@H]2C[C@@H](O)CN2C(=O)[C@@H](NC(=O)CCN2CCC3(CC2)CCN(CC[C@H](CSc2ccccc2)Nc2ccc(S(=O)(=O)Nc4ccc(N5CCN(c6cc(F)cc(-c7c(S(C)(=O)=O)c(C)n(C(C)C)c7-c7ccc(F)cc7)c6)CC5)cc4)cc2S(=O)(=O)C(F)(F)F)CC3)C(C)(C)C)cc1 | 48

More lines, in order of falling IC50, values ahead:

Row | IC50 [nM] | Compound
13 | 2300 | CCn1c(C)c(S(C)(=O)=O)c(-c2cc(F)cc(N3CCN(c4ncc(NS(=O)(=O)c5ccc(N[C@H](CCN6CCN(CCCOc7cn([C@@H](C(=O)N8C[C@H](O)C[C@H]8C(=O)N[C@@H](CO)c8ccc(-c9scnc9C)cc8)C(C)(C)C)nn7)CC6)CSc6ccccc6)c(S(=O)(=O)C(F)(F)F)c5)cn4)CC3)c2)c1-c1ccc(F)cc1
14 | 160 | CCn1c(C)c(S(C)(=O)=O)c(-c2cc(F)cc(N3CCN(c4ccc(NS(=O)(=O)c5ccc(N[C@H](CCN6CCC7(CC6)CN(C(=O)CCCCC(=O)N[C@H](C(=O)N6C[C@H](O)C[C@H]6C(=O)N[C@@H](C)c6ccc(-c8scnc8C)cc6)C(C)(C)C)C7)CSc6ccccc6)c(S(=O)(=O)C(F)(F)F)c5)cc4)CC3)c2)c1-c1ccc(F)cc1
15 | 137 | CCn1c(C)c(S(C)(=O)=O)c(-c2cc(F)cc(N3CCN(c4ccc(NS(=O)(=O)c5ccc(N[C@H](CCN6CCN(C7CCN(CCOc8cc([C@@H](C(=O)N9C[C@H](O)C[C@H]9C(=O)N[C@@H](CO)c9ccc(-c%10scnc%10C)cc9)C(C)C)on8)CC7)CC6)CSc6ccccc6)c(S(=O)(=O)C(F)(F)F)c5)cn4)CC3)c2)c1-c1ccc(F)cc1
16 | 130 | CCn1c(C)c(C(=O)N2CC[C@](C)(O)C2)c(-c2cc(F)cc(N3CCN(c4ccc(NS(=O)(=O)c5ccc(N[C@H](CCN6CCN(C(=O)CCCCCC(=O)N[C@H](C(=O)N7C[C@H](O)C[C@H]7C(=O)N[C@@H](C)c7ccc(-c8scnc8C)cc7)C(C)(C)C)CC6)CSc6ccccc6)c(S(=O)(=O)C(F)(F)F)c5)cc4)CC3)c2)c1-c1ccc(F)cc1
17 | 55 | CCn1c(C)c(C(=O)N2CC3(CCOCC3)C2)c(-c2cc(F)cc(N3CCN(c4ccc(NS(=O)(=O)c5ccc(N[C@H](CCN6CCN(C(=O)CCCCCC(=O)N[C@H](C(=O)N7C[C@H](O)C[C@H]7C(=O)N[C@@H](C)c7ccc(-c8scnc8C)cc7)C(C)(C)C)CC6)CSc6ccccc6)c(S(=O)(=O)C(F)(F)F)c5)cc4)CC3)c2)c1-c1ccc(F)cc1
18 | 40 | CCn1c(C)c(S(C)(=O)=O)c(-c2cc(F)cc(N3CCN(c4ccc(NS(=O)(=O)c5ccc(N[C@H](CCN6CCN(C(=O)NCCCCCC(=O)N[C@H](C(=O)N7C[C@H](O)C[C@H]7C(=O)N[C@@H](C)c7ccc(-c8scnc8C)cc7)C(C)(C)C)CC6)CSc6ccccc6)c(S(=O)(=O)C(F)(F)F)c5)cc4)CC3)c2)c1-c1ccc(F)cc1
19 | 37 | CCn1c(C)c(C(=O)N2CC[C@@H](C#N)C2)c(-c2cc(F)cc(N3CCN(c4ccc(NS(=O)(=O)c5ccc(N[C@H](CCN6CCN(C(=O)CCCCCC(=O)N[C@H](C(=O)N7C[C@H](O)C[C@H]7C(=O)N[C@@H](C)c7ccc(-c8scnc8C)cc7)C(C)(C)C)CC6)CSc6ccccc6)c(S(=O)(=O)C(F)(F)F)c5)cc4)CC3)c2)c1-c1ccc(F)cc1
20 | 34 | CCn1c(C)c(S(=O)(=O)NCCC2CCOCC2)c(-c2cc(F)cc(N3CCN(c4ccc(NS(=O)(=O)c5ccc(N[C@H](CCN6CCN(C(=O)CCCCCC(=O)N[C@H](C(=O)N7C[C@H](O)C[C@H]7C(=O)N[C@@H](C)c7ccc(-c8scnc8C)cc7)C(C)(C)C)CC6)CSc6ccccc6)c(S(=O)(=O)C(F)(F)F)c5)cc4)CC3)c2)c1-c1ccc(F)cc1
21 | 23 | CCn1c(C)c(S(C)(=O)=O)c(-c2cc(F)cc(N3CCN(c4ccc(NS(=O)(=O)c5ccc(N[C@H](CCN(C)CCN(C)C(=O)CCCCCC(=O)N[C@H](C(=O)N6C[C@H](O)C[C@H]6C(=O)N[C@@H](C)c6ccc(-c7scnc7C)cc6)C(C)(C)C)CSc6ccccc6)c(S(=O)(=O)C(F)(F)F)c5)cc4)CC3)c2)c1-c1ccc(F)cc1
22 | 18 | CCn1c(C)c(S(C)(=O)=O)c(-c2cc(F)cc(N3CCN(c4ccc(NS(=O)(=O)c5ccc(N[C@H](CCN6CCN(CCCCCC(=O)N[C@H](C(=O)N7C[C@H](O)C[C@H]7C(=O)N[C@@H](C)c7ccc(-c8scnc8C)cc7)C(C)(C)C)CC6)CSc6ccccc6)c(S(=O)(=O)C(F)(F)F)c5)cc4)CC3)c2)c1-c1ccc(F)cc1
23 | 16 | CCn1c(C)c(S(C)(=O)=O)c(-c2cc(F)cc(N3CCN(c4ccc(NS(=O)(=O)c5ccc(N[C@H](CCN(C)CCCN(C)C(=O)CCCCCC(=O)N[C@H](C(=O)N6C[C@H](O)C[C@H]6C(=O)N[C@@H](C)c6ccc(-c7scnc7C)cc6)C(C)(C)C)CSc6ccccc6)c(S(=O)(=O)C(F)(F)F)c5)cc4)CC3)c2)c1-c1ccc(F)cc1
24 | 14 | CCn1c(C)c(C(=O)N2CC[C@@H](O)C2)c(-c2cc(F)cc(N3CCN(c4ccc(NS(=O)(=O)c5ccc(N[C@H](CCN6CCN(C(=O)CCCCCC(=O)N[C@H](C(=O)N7C[C@H](O)C[C@H]7C(=O)N[C@@H](C)c7ccc(-c8scnc8C)cc7)C(C)(C)C)CC6)CSc6ccccc6)c(S(=O)(=O)C(F)(F)F)c5)cc4)CC3)c2)c1-c1ccc(F)cc1
25 | 12 | CCn1c(C)c(C(=O)N2CC3(CCOCC3)C2)c(-c2cc(F)cc(N3CCN(c4ccc(NS(=O)(=O)c5ccc(N[C@H](CCN6CCN(CCCCCCC(=O)N[C@H](C(=O)N7C[C@H](O)C[C@H]7C(=O)N[C@@H](C)c7ccc(-c8scnc8C)cc7)C(C)(C)C)CC6)CSc6ccccc6)c(S(=O)(=O)C(F)(F)F)c5)cc4)CC3)c2)c1-c1ccc(F)cc1
